Here are results for one substance from patent US9211249B2, “Methods and compositions for transdermal delivery of caffeine in the form of solutions or suspensions” (priority 2013, dated 2015).

This data set in a line: Solubility of caffeine in caffeine-containing compositions containing various helper esters. Particulars: 10% helper ester in water at 20° C.

For “2-(Dipentylamino)methyl 2-(4-isobutylphenyl)propionate hydrochloride”, the “Solubility of caffeine (w/v)” value is above 3%.
